# Assay results as given in PubChem BioAssay (NCATS).
# Amino acid sequences for entries named in this document (tags omitted). A change or cut given only in a name is not applied to a line headed by its entry.
# UniProt O94782: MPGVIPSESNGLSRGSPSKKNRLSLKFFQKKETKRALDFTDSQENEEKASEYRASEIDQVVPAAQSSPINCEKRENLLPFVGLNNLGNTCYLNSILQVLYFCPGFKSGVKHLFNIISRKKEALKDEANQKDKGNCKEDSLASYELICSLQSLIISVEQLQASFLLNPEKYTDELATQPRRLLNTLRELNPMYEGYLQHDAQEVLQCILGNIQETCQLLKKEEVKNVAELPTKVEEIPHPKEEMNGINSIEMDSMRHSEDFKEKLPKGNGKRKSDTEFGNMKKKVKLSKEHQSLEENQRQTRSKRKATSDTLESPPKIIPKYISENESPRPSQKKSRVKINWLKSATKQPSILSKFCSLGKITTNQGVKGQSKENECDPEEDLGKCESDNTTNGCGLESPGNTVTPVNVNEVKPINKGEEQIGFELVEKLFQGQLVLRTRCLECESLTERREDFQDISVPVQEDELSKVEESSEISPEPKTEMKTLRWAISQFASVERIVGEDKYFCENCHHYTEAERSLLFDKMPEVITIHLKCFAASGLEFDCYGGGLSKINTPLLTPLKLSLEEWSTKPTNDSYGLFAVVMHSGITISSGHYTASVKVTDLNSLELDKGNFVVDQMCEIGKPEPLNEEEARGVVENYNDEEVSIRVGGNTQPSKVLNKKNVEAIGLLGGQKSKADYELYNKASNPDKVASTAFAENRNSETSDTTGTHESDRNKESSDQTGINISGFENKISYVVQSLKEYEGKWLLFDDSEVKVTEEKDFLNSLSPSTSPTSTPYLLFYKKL
# UniProt P10275: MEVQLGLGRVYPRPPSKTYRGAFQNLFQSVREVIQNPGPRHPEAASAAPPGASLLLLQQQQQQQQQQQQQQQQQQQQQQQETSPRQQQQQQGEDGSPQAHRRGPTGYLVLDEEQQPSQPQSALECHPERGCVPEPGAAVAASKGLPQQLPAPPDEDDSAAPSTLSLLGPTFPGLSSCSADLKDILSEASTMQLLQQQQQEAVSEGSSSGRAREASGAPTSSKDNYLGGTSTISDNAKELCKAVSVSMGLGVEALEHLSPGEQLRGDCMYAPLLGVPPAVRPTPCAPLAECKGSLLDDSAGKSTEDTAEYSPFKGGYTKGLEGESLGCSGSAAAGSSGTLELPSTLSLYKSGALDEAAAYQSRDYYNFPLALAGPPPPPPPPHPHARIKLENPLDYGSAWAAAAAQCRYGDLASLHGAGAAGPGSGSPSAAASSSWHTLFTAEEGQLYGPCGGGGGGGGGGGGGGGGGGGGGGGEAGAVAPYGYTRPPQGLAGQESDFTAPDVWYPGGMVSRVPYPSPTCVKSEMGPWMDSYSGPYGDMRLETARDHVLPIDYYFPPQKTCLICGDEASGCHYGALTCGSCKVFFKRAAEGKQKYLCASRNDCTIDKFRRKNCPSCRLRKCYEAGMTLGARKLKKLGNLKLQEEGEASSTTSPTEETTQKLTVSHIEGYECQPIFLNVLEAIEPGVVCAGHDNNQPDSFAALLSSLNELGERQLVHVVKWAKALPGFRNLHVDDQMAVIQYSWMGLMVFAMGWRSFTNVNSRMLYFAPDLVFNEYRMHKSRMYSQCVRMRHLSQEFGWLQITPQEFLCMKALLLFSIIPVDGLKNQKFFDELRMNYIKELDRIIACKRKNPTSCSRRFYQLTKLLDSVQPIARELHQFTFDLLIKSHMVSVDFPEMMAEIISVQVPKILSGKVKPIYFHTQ
# UniProt P08482: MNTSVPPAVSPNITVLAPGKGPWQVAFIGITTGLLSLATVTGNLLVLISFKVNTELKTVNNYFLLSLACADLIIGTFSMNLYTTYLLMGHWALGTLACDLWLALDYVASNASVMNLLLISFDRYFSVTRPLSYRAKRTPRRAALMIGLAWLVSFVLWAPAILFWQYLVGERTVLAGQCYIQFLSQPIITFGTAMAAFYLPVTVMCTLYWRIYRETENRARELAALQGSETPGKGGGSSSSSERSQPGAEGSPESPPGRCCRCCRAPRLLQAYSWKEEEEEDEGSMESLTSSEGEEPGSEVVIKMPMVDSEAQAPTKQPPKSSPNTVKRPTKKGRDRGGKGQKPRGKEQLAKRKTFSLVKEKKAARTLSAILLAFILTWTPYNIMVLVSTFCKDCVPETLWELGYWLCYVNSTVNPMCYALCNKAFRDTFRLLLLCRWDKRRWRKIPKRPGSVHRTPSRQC
# UniProt Q9NUW8, whole entry, looked up: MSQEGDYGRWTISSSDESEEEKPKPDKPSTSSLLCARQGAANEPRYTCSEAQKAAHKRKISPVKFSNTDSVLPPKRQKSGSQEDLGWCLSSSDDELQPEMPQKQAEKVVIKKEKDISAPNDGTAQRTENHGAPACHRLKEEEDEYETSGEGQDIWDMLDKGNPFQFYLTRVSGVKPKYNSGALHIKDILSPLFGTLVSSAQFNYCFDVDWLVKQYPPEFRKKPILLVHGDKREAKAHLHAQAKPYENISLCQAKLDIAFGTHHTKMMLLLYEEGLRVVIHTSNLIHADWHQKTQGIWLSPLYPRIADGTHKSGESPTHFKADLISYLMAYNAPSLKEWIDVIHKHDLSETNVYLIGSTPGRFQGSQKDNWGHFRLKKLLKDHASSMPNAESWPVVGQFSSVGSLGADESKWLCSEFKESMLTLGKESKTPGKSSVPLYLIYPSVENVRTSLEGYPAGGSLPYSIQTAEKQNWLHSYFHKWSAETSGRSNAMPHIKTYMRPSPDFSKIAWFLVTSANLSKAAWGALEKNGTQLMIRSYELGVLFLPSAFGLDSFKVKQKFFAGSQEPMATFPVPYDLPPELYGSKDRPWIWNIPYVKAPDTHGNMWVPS
# UniProt P02791: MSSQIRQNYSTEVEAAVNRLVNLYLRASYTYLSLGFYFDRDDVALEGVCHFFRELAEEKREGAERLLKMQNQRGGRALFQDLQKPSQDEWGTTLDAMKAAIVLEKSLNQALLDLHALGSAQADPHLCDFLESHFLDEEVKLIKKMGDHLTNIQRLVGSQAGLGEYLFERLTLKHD
# UniProt P83916, whole entry, looked up: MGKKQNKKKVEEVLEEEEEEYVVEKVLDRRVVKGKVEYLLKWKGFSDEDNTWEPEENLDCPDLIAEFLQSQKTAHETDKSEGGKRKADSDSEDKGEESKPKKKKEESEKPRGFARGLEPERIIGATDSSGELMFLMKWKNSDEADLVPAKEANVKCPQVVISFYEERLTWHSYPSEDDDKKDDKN
# Values joined by “and” are separate entries in the source; they are usually repeats but may differ in a detail not shown here. Equal values may be shown once. For some assays here: This list holds what a sample rich in hits left over. Records with an inconclusive call do not appear. This is a selection; strong and weak results do not stand in their true shares. Active and inactive are the calls of the source. Unless noted, the call rests on the fitted dose curve; in most records, active means well fitted curve in the direction sought with a large enough effect; inconclusive means small, poorly fitted or top-dose-only effect, or another doubt; inactive means no such curve, though single readings can be large; an effect the other way counts as inactive or inconclusive.
# Experiments:
# [1] = HTS Assay for Allosteric Antagonists of the Human D2 Dopamine Receptor: Hit Validation in HTRF (AID 624455); conditions: Cells stably expressing D1 dopamine receptor, inhibition mode;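 further: stable D1 dopamine receptor cell line scored for blocking the D1 response; potency means the concentration at half of the fitted maximal effect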
# In short: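 Inhibition of the D1-mediated response was measured by HTRF. Cells used were a line stably expressing the D1 dopamine receptor.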
# [2] = molecular target: Ubiquitin carboxyl-terminal hydrolase 1 (Homo sapiens) (UniProt O94782); experiment: Inhibitors of USP1/UAF1: Pilot qHTS (AID 504865); conditions: purified USP1/UAF1, Ub-rhodamine cleavage fluorescence;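 further: rhodamine fluorescence freed from ubiquitin-rhodamine substrate followed over time; top concentration of the series differs between compounds; on the % scale 0 is the no-effect control and ±100 the full control effect; nearly all actives have a fitted effect of over 35% in size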
# In short: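 Enzyme-free wells gave the negative control, while test wells held 1nM USP1/UAF1 preincubated with compound for 15 min at room temperature. Ub-Rho at 150nM final started the reaction, and fluorescence at 480/540 nm was recorded kinetically.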
# [3] = molecular target: Androgen receptor (Homo sapiens) (UniProt P10275); experiment: qHTS assay for small molecule antagonists of androgen receptor signaling (AID 588516; active means well fitted curve in the direction sought with a large enough effect in the signal ratio, with a control signal flat, not every such curve was filed as active; the % refers to the signal ratio; further: on the % scale 0 is the no-effect control and ±100 the full control effect); conditions: AR-UAS-bla HEK293, beta-lactamase ratio, antagonist mode, 16 h; at 76.8 µM (top of the series)
# [4] = molecular target: Muscarinic acetylcholine receptor M1 (Rattus norvegicus) (UniProt P08482); experiment: qHTS Assay for Antagonists of Acetylcholine Muscarinic M1 Receptor: Kinetic Measurement of Intracellular Calcium Response (AID 943); conditions: M1-expressing cells, kinetic intracellular calcium fluorescence; further: potency means the concentration at half of the fitted maximal effect; nearly all actives have a fitted effect of over 75% in size
# In short: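 Antagonism measured as reduction of carbachol-evoked (EC80, 100 nM final) calcium flux in rat M1-CHO cells after 10 min compound exposure. Fluo-4 signal read kinetically; ratio of maximal to basal fluorescence.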
# [5] = molecular target: Muscarinic acetylcholine receptor M1 (Rattus norvegicus) (UniProt P08482); experiment: qHTS Assay for Antagonists of Acetylcholine Muscarinic M1 Receptor: Measurement of IP-One Response (AID 944); conditions: CHO-M1 cells, IP-One HTRF, antagonist mode; further: potency means the concentration at half of the fitted maximal effect; nearly all actives have a fitted effect of over 75% in size
# In short: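 IP1 accumulation measured via TR-FRET between d2-IP1 and Eu-cryptate anti-IP1 antibody after carbachol (200 nM, EC80) stimulation for 30 min; rat M1-transfected CHO cells received compound 10 min before agonist.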
# [6] = S16 Schwann cell viability assay (CellTiter-Glo assay) (AID 624031); conditions: S16 rat Schwann cells viability, 24 h; at 57.5 µM (top of the series);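 further: native untransfected S16 rat Schwann cells; cellular ATP luminescence as a viability measure; plate controls were DMSO-treated cells for no effect and cell-free wells for full effect; nearly all actives have a fitted effect of over 70% in size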
# In short: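 Concentration-effect curves come from CellTiter-Glo luminescence of S16 rat Schwann cells after 24 h compound exposure. Each reading was normalized to DMSO wells (0%) and wells without cells, and curves were ranked by r2 and response magnitude.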
# [7] = S16 Schwann cell PMP22 intronic element firefly luciferase assay (AID 624032); conditions: S16 rat Schwann cells, PMP22 element FLuc, 24 h; at 57.5 µM (top of the series);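 further: plate controls were DMSO for no effect and PTC124 positive control mean for full effect; nearly all actives have a fitted effect of over 30% in size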
# In short: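 Luciferase reporter of PMP22 intronic-element expression in stably transfected S16 rat Schwann cells, read by ONE-Glo luminescence after 24 h compound exposure at 37 C. Activity scaled between DMSO (0%) and positive-control PTC124; concentration-effect curves quality-classified.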
# [8] = molecular target: Tyrosyl-DNA phosphodiesterase 1 (Homo sapiens) (UniProt Q9NUW8); experiment: Confirmation Assay for Inhibitors of Tyrosyl-DNA Phosphodiesterase (TDP1) (AID 489007); conditions: recombinant human TDP1 enzymatic activity, dose-response; further: potency means the concentration at half of the fitted maximal effect; nearly all actives have a fitted effect of over 40% in size
# In short: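 AlphaScreen assay of tyrosine-FITC cleavage from a biotinylated DNA substrate (15 nM) by E. coli-expressed human Tdp1 (1 nM). Sequence: compound preincubation 15 min, reaction 5 min, bead detection 10 min, all at room temperature. No-enzyme wells give maximum signal.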
# [9] = qHTS assay for small molecule agonists of the antioxidant response element (ARE) signaling pathway (AID 651741; active means well fitted activation curve with a large enough effect in the signal ratio; the % refers to the signal ratio; further: % of control where 0% means no effect); conditions: HepG2 ARE-bla reporter, beta-lactamase FRET ratio, 16 h; series mostly up to 96 µM
# In short: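 Beta-lactamase reporter under ARE control in HepG2 cells, 2,000 per well, was induced by 16 h compound treatment at 37 C. Read-out was fluorescence from LiveBLAzer B/G FRET substrate after 2 h at room temperature.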
# [10] = qHTS Assay for Lipid Storage Modulators (AID 1519; calls by dose curve; on activity change, negative = inhibition: on the % scale 0 is the no-effect control and ±100 the full control effect); conditions: Drosophila S3 cells, BODIPY lipid droplet/cell ratio, laser cytometry, cells loaded with oleic acid
# In short: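 Cells seeded at 5,000 per well were treated with compounds over a concentration series and loaded with oleic acid (400 uM, as added). Lipid droplet fluorescence (488 nm excitation, 500-530 nm channel) was read by laser-scanning cytometry and normalized to 20 uM Triacsin C.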
# [11] = molecular target: Ferritin light chain (Equus caballus) (UniProt P02791); experiment: qHTS Validation Assay for Identification of Novel General Anesthetics (AID 2323); conditions: horse apoferritin, anesthetic-site fluorescent probe displacement; at 76.9 µM (top of the series); further: on the % scale 0 is the no-effect control and ±100 the full control effect
# In short: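 Normalized fluorescence response, scaled between free 1-AMA and 1-AMA/apoferritin complex, fitted to a four-parameter Hill equation for concentration-effect values. Binding mix: 10 uM horse-spleen apoferritin, 50% saturated 1-AMA in PBS; read 380/535 nm after 10 min.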
# [12] = molecular target: Chromobox protein homolog 1 (Homo sapiens) (UniProt P83916); experiment: qHTS Validation Assay for Inhibitors of HP1-beta Chromodomain Interactions with Methylated Histone Tails (AID 488953); conditions: HP1-beta chromodomain / methylated histone peptide binding assay; further: potency means the concentration at half of the fitted maximal effect; nearly all actives have a fitted effect of over 50% in size
# In short: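 AlphaScreen proximity signal from streptavidin donor and nickel chelate acceptor beads (final 10 ug/mL) after 30 min dark incubation. Compounds had 30 min at room temperature with preformed complex of 50 nM HP1-beta and 50 nM b-H3(1-18)K9me3 in PBS pH 7.4 with 0.01% Tween-20.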
# KB-3-1 = experiment: Cytotoxic Profiling of Annotated Libraries Using Quantitative High-Throughput Screening (AID 1296008); conditions: Five cell lines viability, CellTiter-Glo ATP luminescence, 48-72 h, stronger effect = lower value; further: on the % scale 0 is the no-effect control and ±100 the full control effect; nearly all actives have a fitted effect of over 60% in size
# In short: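 Cytotoxicity was measured as CellTiter-Glo ATP luminescence, read after 10 min at room temperature. Compound treatment of the cells lasted 48 or 72 hr at 37 degrees Celsius in a qHTS format.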
smiles,measurement,setting,value
CCCN1CCC[C@@H](c2cccc(O)c2)C1,Potency,[1],active: 517 nM
Cn1c(=O)c2[nH]cnc2n(C)c1=O,"activity change, negative = inhibition",[2]; at 54.9 µM (top of the series),inactive: 17.1%
same,"activity change, negative = inhibition",[2]; at 114 µM (top of the series),inactive: -7.54% and inactive: -1.44%
COP(=S)(OC)SCn1nnc2ccccc2c1=O,"activity change, negative = inhibition",[3],inactive: -2.09%
C[N+]1(C)[C@@H]2CC[C@H]1CC(OC(=O)[C@@H](CO)c1ccccc1)C2 (some centres not stated),Potency,[4],active: 11.2 nM and active: 12.6 nM
same,Potency,[5],active: 2.5 nM
COc1ccc(C[C@H](C)NC[C@@H](O)c2ccc(O)c(NC=O)c2)cc1,"activity change, negative = cytotoxicity",[6],inactive: -12%
same,"activity change, negative = inhibition",[7],inactive: -24.4%
C[C@]12CC[C@@H]3c4ccc(OC(=O)N(CCCl)CCCl)cc4CC[C@H]3[C@@H]1CC[C@@H]2O,Potency,[8],active: 7250 nM
CN1CCC[C@H]1c1cccnc1,Potency,[9],inactive
C[C@@H](Cc1ccc(O)cc1)NC[C@@H](O)c1cc(O)cc(O)c1,"activity change, negative = inhibition",[10]; at 25.7 µM (top of the series),inactive: 0.601%
same,max response,[10]; measured here: cell count channel max response,-3.2%
same,max response,[10]; measured here: lipid channel max response,-0.602%
Cc1nccc2c1[nH]c1ccccc12,"activity change, negative = inhibition",[11],inactive: 976%
CCCN1CCC[C@H](c2cccc(O)c2)C1,Potency,[1],active: 5170 nM
CS(=N)(=O)CC[C@H](N)C(=O)O (some centres not stated),Potency,[12],active: 6.7 nM
O=c1oc2ccccc2c(O)c1Cc1c(O)c2ccccc2oc1=O,max response,KB-3-1,inactive: 11.2%
